{
  "source": "patent US8367658B2",
  "about": "“Pyrazin-2-yl-pyridin-2-yl-amine and pyrazin-2-yl-pyrimidin-4-yl-amine compounds and their use” (Cancer Research Technology Limited, priority 2007, dated 2013)",
  "biological_target": "T1, CHK1 (Homo sapiens, UniProt O14757)",
  "T1 sequence (O14757 1-476)": "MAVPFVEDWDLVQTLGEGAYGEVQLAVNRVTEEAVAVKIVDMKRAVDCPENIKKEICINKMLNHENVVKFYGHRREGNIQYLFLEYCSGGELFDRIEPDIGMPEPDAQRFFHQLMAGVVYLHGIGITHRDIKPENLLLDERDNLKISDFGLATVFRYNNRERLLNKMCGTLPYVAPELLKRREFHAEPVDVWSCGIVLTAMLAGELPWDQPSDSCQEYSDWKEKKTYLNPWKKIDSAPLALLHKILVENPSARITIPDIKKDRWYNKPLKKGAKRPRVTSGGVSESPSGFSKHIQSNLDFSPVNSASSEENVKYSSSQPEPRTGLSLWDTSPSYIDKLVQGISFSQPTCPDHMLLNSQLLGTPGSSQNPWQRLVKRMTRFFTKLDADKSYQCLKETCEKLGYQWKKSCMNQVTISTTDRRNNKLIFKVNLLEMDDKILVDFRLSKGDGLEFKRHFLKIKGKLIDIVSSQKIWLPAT",
  "experiment": "CHK1 kinase function inhibition assay (DELFIA, phosphorylation of a CDC25C peptide)",
  "assay_type": "biochemical",
  "settings": "CHK1 1 nM, ATP 30 μM, 30 minutes at room temperature",
  "note": "Where “and” joins values, the source holds several entries; their conditions need not be identical. Equal entries are not always repeated.",
  "data": [
    {"smiles": "N#Cc1cnc(Nc2cc(N3CCC(N)CC3)ncn2)cn1", "note": "[Compound Z-008, 5-(6-(4-Aminopiperidin-1-yl)pyrimidin-4-ylamino)pyrazine-2-carbonitrile]", "values": [
      {"measurement": "IC50", "value": "≤ 1000 nM and 100 to 1000 nM"}
    ]},
    {"smiles": "N#Cc1cnc(Nc2cc(NCCCN)ncn2)cn1", "note": "[Compound Z-021, 5-(6-(3-Aminopropylamino)pyrimidin-4-ylamino)pyrazine-2-carbonitrile]", "values": [
      {"measurement": "IC50", "value": "≤ 1000 nM and 100 to 1000 nM"}
    ]},
    {"smiles": "N#Cc1cnc(Nc2cc(NCCCO)ncn2)cn1", "note": "[Compound Z-040, 5-(6-(3-Hydroxypropylamino)pyrimidin-4-ylamino)pyrazine-2-carbonitrile]", "values": [
      {"measurement": "IC50", "value": "1000 to 10000", "unit": "nM"}
    ]},
    {"smiles": "N#Cc1cnc(Nc2cc(NCCN)ncn2)cn1", "note": "[Compound Z-020, 5-(6-(2-Aminoethylamino)pyrimidin-4-ylamino)pyrazine-2-carbonitrile]", "values": [
      {"measurement": "IC50", "value": "1000 to 10000", "unit": "nM"}
    ]}
  ]
}
